Experimental findings from ChEMBL document CHEMBL1821671, “Synthesis and in vitro evaluation of new analogues as inhibitors for phosphodiesterase 10A” (Eur J Med Chem, 2011) are described below.

SMILES strings stand for the structures.

In assay [1] the target is cAMP and cAMP-inhibited cGMP 3',5'-cyclic phosphodiesterase 10A (Homo sapiens, UniProt Q9Y233). As to the kind of experiment: Inhibition of human recombinant PDE10A assessed as reduction in hydrolysis of [3H]cAMP by scintillation proximity assay. In outline:
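Recombinant human PDE10A, fixed amount, in [³H]cAMP scintillation proximity assay; substrate at 1/3 Km with varied inhibitor concentrations. Reaction started by enzyme addition, incubated to ~30% substrate turnover, stopped with yttrium silicate SPA beads, counted after settling. Signal expressed as % of uninhibited control versus concentration to fit IC50; each compound assayed at least twice.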

The target in assay [2] is T1, cAMP and cAMP-inhibited cGMP 3',5'-cyclic phosphodiesterase 10A (Rattus norvegicus, UniProt Q9QYJ6).
T1 sequence (Q9QYJ6 whole entry): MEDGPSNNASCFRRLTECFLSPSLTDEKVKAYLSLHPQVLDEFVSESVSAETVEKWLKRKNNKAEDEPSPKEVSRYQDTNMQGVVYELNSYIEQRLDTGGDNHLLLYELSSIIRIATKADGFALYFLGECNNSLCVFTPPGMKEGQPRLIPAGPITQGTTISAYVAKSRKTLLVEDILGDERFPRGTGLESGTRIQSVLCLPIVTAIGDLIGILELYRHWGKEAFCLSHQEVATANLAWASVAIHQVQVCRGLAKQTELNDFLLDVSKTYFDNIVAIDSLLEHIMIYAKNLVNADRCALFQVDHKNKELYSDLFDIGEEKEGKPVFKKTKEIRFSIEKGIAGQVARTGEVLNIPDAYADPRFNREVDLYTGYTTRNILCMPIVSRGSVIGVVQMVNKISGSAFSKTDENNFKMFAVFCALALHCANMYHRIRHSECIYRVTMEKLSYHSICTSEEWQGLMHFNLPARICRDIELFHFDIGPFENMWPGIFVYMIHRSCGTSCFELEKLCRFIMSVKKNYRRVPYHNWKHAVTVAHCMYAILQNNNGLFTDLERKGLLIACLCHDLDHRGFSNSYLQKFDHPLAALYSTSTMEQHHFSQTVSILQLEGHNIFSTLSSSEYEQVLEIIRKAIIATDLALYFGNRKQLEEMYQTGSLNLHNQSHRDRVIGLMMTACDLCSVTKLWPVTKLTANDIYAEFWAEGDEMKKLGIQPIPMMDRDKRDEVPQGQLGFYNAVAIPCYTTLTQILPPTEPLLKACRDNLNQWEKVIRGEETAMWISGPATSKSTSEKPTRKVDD
In words: Inhibition of rat PDE10A.

For the compound `COc1ccc(Cc2nccc3cc(OC)c(OC)cc23)cc1OC` [PAPAVERINE], the figures for the IC50 in assay [1] and in assay [2] were 21 nM and 36 nM, respectively.
